Target: PI3Kα (p110α/p85α) (Homo sapiens (Human), UniProt P42336)
Assay: PI3Kα enzymatic test by measuring the consumption of ATP
Assay type: biochemical
Procedure: Model 2: PI3Kα Enzymatic Test by Measuring the Consumption of ATP.
The test uses a lucifeurerin/luciferase system to measure the concentration of ATP and its consumption during the enzymatic reaction. The test is performed in 96-well format (Corning/Costar 96 black flat-bottomed half-wells plate, ref. 3694) in a total volume of 30 μl.
To 1 μl of inhibitor in 100% DMSO are added (final concentrations) 50 μM of the substrate PIP2 ((L-α-phosphatidyl-D-myoinositol 4,5-bisphosphate, Echelon 117P-4516-0500), 2 μM of ATP and 1.7 μg/ml of PI3Kα, (p110α/p85α, Invitrogen PV4788) in a buffer of Tris/HCl 50 mM pH 7.5, EGTA 1 mM, MgCl2 10 mM, Chaps 0.03%, 1 mM DTT). After 90 minutes, the reaction is quenched by adding 20 μl/well of KinaseGlo reagent (Promega V6713). After 10 minutes in the dark, the luminescence is read on the PHERAStar microplate reader (reading at 0.8 sec/well).
The IC50 values are determined by the preparation of successive threefold dilutions on at least a scale of 10 000.

Sequences of proteins named here, by UniProt entry; tags and fusion partners are left off.
UniProt P42336, whole entry: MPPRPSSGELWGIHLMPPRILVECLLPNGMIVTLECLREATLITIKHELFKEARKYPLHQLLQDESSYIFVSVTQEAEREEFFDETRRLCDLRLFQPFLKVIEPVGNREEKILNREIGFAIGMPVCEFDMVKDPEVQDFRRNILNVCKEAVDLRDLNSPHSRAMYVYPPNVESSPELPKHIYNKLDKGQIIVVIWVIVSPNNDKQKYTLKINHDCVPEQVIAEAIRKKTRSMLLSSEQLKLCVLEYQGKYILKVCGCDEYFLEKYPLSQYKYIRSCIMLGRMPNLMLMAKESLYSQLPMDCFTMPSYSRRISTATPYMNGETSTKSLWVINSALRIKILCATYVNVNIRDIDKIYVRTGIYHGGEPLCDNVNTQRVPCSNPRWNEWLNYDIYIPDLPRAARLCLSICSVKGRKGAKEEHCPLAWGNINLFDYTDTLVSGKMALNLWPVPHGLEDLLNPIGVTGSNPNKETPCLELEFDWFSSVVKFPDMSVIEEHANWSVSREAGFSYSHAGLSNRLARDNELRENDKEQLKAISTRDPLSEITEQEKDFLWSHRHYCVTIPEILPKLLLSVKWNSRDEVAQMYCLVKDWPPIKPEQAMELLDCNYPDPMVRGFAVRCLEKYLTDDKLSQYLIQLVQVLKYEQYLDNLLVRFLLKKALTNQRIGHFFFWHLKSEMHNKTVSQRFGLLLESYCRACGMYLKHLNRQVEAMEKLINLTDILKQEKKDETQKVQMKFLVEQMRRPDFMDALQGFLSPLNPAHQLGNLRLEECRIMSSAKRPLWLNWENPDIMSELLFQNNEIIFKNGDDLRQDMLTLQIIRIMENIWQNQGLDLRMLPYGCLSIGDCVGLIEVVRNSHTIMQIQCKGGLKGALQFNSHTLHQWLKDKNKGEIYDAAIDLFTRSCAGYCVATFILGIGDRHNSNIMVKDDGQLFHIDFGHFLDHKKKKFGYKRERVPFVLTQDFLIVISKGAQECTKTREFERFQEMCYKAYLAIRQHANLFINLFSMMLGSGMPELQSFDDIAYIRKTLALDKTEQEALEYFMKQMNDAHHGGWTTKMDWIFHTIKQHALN

**Q.** COCCN1CC(C)(C)Oc2nc(N3CC4CCC(C3)O4)nc(-c3ccc(NC(=O)Nc4cccc(OC(F)F)c4)c(F)c3)c2C1=O [Example 220, 1-(3-Difluoromethoxyphenyl)-3-{2-fluoro-4-[6-(2-methoxyethyl)-8,8-dimethyl-2-(8-oxa-3-azabicyclo[3.2.1]oct-3-yl)-5-oxo-5,6,7,8-tetrahydro-9-oxa-1,3,6-triazabenzocyclohepten-4-yl]phenyl}urea] was tested. Which “PI3Ka IC50” value did it give?
**A.** 1860 nM
